# Assay results reported in patent US11174250B2, “Substituted carboxamides as inhibitors of WDR5 protein-protein binding” (PROPELLON THERAPEUTICS INC., priority 2016, dated 2021).
# pIC50, pKd: −log10 of the molar value. Like-named read-outs stand apart in the source and are kept apart here.
# Legend:
# [1] = target: MLL1-WRAD2 complex (Homo sapiens (Human), UniProt P61964); test: MLL1-WRAD2 enzyme assay (in vitro methyl transferase assay); assay type: biochemical
# Protocol: Reaction was initiated with 1 μM 3H-SAM and incubated for 1 hour at 30° C. Reaction mixture was transferred to P81 filter-paper and washed with PBS before detection.
# [2] = target: WDR5 protein (Homo sapiens (Human), UniProt P61964); test: Surface Plasmon Resonance (SPR) assay; assay type: binding; settings: for residence time: read-out: Residence Time (t, min)
# [3] = read-out: WDR5 binding affinity (KD)
# [4] = read-out: WDR5 binding affinity SPR (KD)
structure (smiles),measurement,setting,value
"C[C@@H]1CN(Cc2ccc(F)c(-c3ccc(N4CCN(C)CC4)c(NC(=O)c4c[nH]c(=O)cc4C(F)(F)F)c3)c2)C[C@H](C)O1 [Example 1, N-(5′-(((2S,6R)-2,6-dimethylmorpholino)methyl)-2′-fluoro-4-(4-methylpiperazin-1-yl)-[1,1′-biphenyl]-3-yl)-6-oxo-4-(trifluoromethyl)-1,6-dihydropyridine-3-carboxamide]",pIC50,[1],6.12
same,pKd,"[2]; SPR, Table 1, read-out: WDR5 binding affinity (KD)",7.77
same,pKd,"[2]; SPR, Table 2, read-out: WDR5 binding affinity SPR (KD)",7.77
same,residence time,"[2]; SPR, τ=1/koff",2.55 min
"CN1CCN(c2ccc(-c3cc(CN4CCOCC4)ccc3F)cc2NC(=O)c2ccc(=O)[nH]n2)CC1 [Example 9, N-(2′-fluoro-4-(4-methylpiperazin-1-yl)-5′-(morpholinomethyl)-[1,1′-biphenyl]-3-yl)-6-oxo-1,6-dihydropyridazine-3-carboxamide]",pKd,[2]; [3],5.80
same,pKd,[2]; [4],5.80
"Cc1cc(C(=O)Nc2cc(-c3cc(CNC4CCCCC4)ccc3F)ccc2N2CCN(C)CC2)cc(C)c1F [Example 18, N-(5′-((cyclohexylamino)methyl)-2′-fluoro-4-(4-methylpiperazin-1-yl)-[1,1′-biphenyl]-3-yl)-4-fluoro-3,5-dimethylbenzamide]",pKd,[2]; [3],7.57
same,pKd,[2]; [4],7.57
"CN1CCN(c2c(F)cc(-c3cc(CN4CCOCC4)ccc3F)cc2NC(=O)c2c[nH]c(=O)cc2C(F)(F)F)CC1 [Example 98, N-(2′,5-difluoro-4-(4-methylpiperazin-1-yl)-5′-(morpholinomethyl)-[1,1′-biphenyl]-3-yl)-6-oxo-4-(trifluoromethyl)-1,6-dihydropyridine-3-carboxamide]",residence time,[2],0.78 min
